# Ab-14 heavy chain CDR variants: yeast mating affinities

The measurements come from Engelhart et al. 2022 (doi:10.1038/s41597-022-01779-4) through the FLAb antibody collection.

Target: peptide PDVDLGDISGINAS, taken from heptad repeat 2 (HR2) of SARS-CoV-2 spike.

Ab-14 is the parent antibody, in scFv form: VH, then a (GGGGS)3 linker, then VL. The light chain is unchanged in all variants.
VH: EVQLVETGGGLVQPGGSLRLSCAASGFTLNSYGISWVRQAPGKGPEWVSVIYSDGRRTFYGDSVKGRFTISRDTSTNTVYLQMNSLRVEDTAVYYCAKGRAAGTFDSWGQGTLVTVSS
VL: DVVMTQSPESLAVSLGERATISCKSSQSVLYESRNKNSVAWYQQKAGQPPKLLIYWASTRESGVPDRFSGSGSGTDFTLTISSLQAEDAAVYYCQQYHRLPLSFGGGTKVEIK

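Phage display of a naive human antibody library on the peptide gave the parent. In library AAYL49, one, two or three CDR residues were substituted; doubles and triples were drawn at random. The assay is AlphaSeq: two haploid yeast populations carry antibody and antigen on their surface. Pairs that bind mate more often; barcode pairs of the diploids are counted by sequencing. The ratio of observed to expected reads was calibrated, replicate by replicate, on BCL2-family standards whose Kd was known from biolayer interferometry. The assay was run in three technical replicates.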

The parent's heavy chain CDRs are GFTLNSYGIS, VIYSDGRRTFYGDSVK, GRAAGTFDS; each variant's own CDRs replace them letter for letter. Every variant below is changed at T58 of the VH (sequential numbering). Values are apparent Kd, the geometric mean of the replicates that gave a signal; lower means stronger binding. A pair that was not seen in any replicate is written "no signal"; this usually means weak binding, but a binder can also be missed. Order: sorted from the lowest average up, undetected variants last. Three control strains display no target. For library AAYL49, 15% of the pairings with them gave a signal, with a median of 11 µM and one signal in twenty below 680 nM, so weak values seen in few replicates may be background. Parent in this assay: reference entry 4.4 nM, copy in this library 13 µM (one replicate of three).

For GFTLNEYGIS / VIYSDGRRFFYGESVK / GRAAGTFDS, the assay gave 15 nM (3 of 3 replicates).
For GFTLNSYGIS / VIYSDGRRQFYGDDVK / GRAAGTFDS, the assay gave 34 nM (3 of 3 replicates).
For GFTLNSYGIS / VIYSDGRRMFYGDSVK / GAAAGTFDS, the assay gave 36 nM (3 of 3 replicates).
For GFTINSYGIS / VIYSDGRRHFYGDSVK / GRANGTFDS, the assay gave 47 nM (3 of 3 replicates).
For GFTLNSYGIS / VIYSDGRRHFYGDSVK / GRAAGTFDS, the assay gave 180 nM (3 of 3 replicates).
For GFTLNSYGIS / VIYSDGRRSFYGDSVK / GRAAGTEDS, the assay gave 230 nM (3 of 3 replicates).
For EFTLNSYGIS / VIYSDGRRYFYGDSVK / GRAAGTFDS, the assay gave 330 nM (1 of 3 replicates).
For GFDLNSYQIS / VIYSDGRRYFYGDSVK / GRAAGTFDS, the assay gave 650 nM (1 of 3 replicates).
For EFTLNSYGIS / VIYSDGRRLFYGDSVK / GRAAGFFDS, the assay gave 910 nM (2 of 3 replicates).
For GFTLNSYIIA / VIYSDGRRAFYGDSVK / GRAAGTFDS, the assay gave 1.6 µM (1 of 3 replicates).
For AFTLWSYGIS / VIYSDGRRCFYGDSVK / GRAAGTFDS, the assay gave 1.9 µM (1 of 3 replicates).
For GPTLNSYGIS / VIYSDGRMMFYGDSVK / GRAAGTFDS, the assay gave 2.4 µM (2 of 3 replicates).
For GFTLNSYGIS / VIYSDGRRPFAGDSTK / GRAAGTFDS, the assay gave 2.6 µM (1 of 3 replicates).
For LFTLNSYGIS / VIYSDGRRRFYGDNVK / GRAAGTFDS, the assay gave 2.7 µM (2 of 3 replicates).
For GFTLNSQGIS / VIYSDGRRHWYGDSVK / GRAAGTFDS, the assay gave 3.0 µM (3 of 3 replicates).
For GFTLNSYGIS / VIYSDGRRCFYGDVVP / GRAAGTFDS, the assay gave 4.6 µM (1 of 3 replicates).
For GFTLNSYGIS / VCYSDGRRCFYGDSVK / GRAAVTFDS, the assay gave 8.0 µM (1 of 3 replicates).
For GFTLNSYGNS / VIYSDGRRNFYGDDVK / GRAAGTFDS, the assay gave 8.6 µM (1 of 3 replicates).
For GFTLKSYGIS / VIYSLGRRAFYGDSVK / GRAAGTFDS, the assay gave 34 µM (2 of 3 replicates).
For DFTLNSYGIS / VIYSDGRRGFYGDSVK / TRAAGTFDS, the assay gave 52 µM (1 of 3 replicates).
For GFTLNSYGIS / VIYSDGRRKFYGDSVK / GRAAGTIDS, the assay gave 53 µM (3 of 3 replicates).
For GFTLNSYGKS / VIYNDGRRVFYGDSVK / GRAAGTFDS, the assay gave 350 µM (1 of 3 replicates).
For GFTLNSYGIS / NIYSDGRRQFYGDSVK / GRAAGTFDS, the assay gave no signal (0 of 3 replicates).
For GFTLNSYGIS / VIYSDGRRQFYGDSPK / GRAAGTFDS, the assay gave no signal (0 of 3 replicates).
For GFTLNSYGIS / VIYSDGRRFFYGDSVK / GRAAGTFDS, the assay gave no signal (0 of 3 replicates).
For GFTLNSPEIS / VIYSDGRRLFYGDSVK / GRAAGTFDS, the assay gave no signal (0 of 3 replicates).
For GFTLNSMGIS / VIYSDGRREFYGDSVK / RRAAGTFDS, the assay gave no signal (0 of 3 replicates).
For GFTLNSYGIS / VIYSGGRRVFYGDSVK / GRAAGTFGS, the assay gave no signal (0 of 3 replicates).
For GFTLNSYGIS / VIYSDGRNGFYGDSVG / GRAAGTFDS, the assay gave no signal (0 of 3 replicates).
For GFTLNSYGIS / VIYSDPRRHFYGDSVK / GRAAGTFDS, the assay gave no signal (0 of 3 replicates).
For GFFLNSYGIS / VIYSDGRRYFYGDSVK / GRPAGTFDS, the assay gave no signal (0 of 3 replicates).
For GFTLNSYVIS / QIYSDGRRKFYGDSVK / GRAAGTFDS, the assay gave no signal (0 of 3 replicates).
For GFTLNSYGIS / VIYRDGRRQFYGDSVK / GRAAGTFDS, the assay gave no signal (0 of 3 replicates).
For GFTLNSYWIS / VIYSDGRRQFYGDSVK / GRAAGTFDM, the assay gave no signal (0 of 3 replicates).
For GFTLNSYGIS / VIYSDGRRCFRGDSVK / GRAADTFDS, the assay gave no signal (0 of 3 replicates).

The opening 2 entries, copied out:

CDR-H1,CDR-H2,CDR-H3,apparent Kd,seen in
GFTLNEYGIS,VIYSDGRRFFYGESVK,GRAAGTFDS,15 nM,3/3
GFTLNSYGIS,VIYSDGRRQFYGDDVK,GRAAGTFDS,34 nM,3/3